Data taken from US9532983B2, “Benzofuran compounds, compositions, kits and/or methods thereof” (Savannah State University, priority 2013, dated 2017).

Amino acid sequences for entries named in this document (tags omitted).
UniProt Q9R0C9, whole entry: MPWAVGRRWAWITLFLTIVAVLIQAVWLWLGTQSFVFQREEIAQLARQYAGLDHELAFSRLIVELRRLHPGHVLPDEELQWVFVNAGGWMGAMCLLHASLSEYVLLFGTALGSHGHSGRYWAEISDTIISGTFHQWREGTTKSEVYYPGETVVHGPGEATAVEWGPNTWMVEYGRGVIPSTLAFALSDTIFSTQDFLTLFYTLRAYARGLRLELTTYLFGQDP
UniProt P08913, whole entry: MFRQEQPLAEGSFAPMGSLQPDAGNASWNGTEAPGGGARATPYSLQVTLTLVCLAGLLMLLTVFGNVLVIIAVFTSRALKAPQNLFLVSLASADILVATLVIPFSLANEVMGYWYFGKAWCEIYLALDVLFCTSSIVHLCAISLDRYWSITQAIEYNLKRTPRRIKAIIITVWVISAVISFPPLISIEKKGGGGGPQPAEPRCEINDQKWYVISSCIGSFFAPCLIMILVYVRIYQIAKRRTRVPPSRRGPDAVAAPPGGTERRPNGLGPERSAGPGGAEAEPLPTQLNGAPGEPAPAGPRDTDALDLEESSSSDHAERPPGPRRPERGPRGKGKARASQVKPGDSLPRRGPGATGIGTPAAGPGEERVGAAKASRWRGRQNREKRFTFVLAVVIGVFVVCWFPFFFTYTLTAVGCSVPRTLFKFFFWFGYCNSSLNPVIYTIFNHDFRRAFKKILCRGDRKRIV
UniProt P35462, whole entry: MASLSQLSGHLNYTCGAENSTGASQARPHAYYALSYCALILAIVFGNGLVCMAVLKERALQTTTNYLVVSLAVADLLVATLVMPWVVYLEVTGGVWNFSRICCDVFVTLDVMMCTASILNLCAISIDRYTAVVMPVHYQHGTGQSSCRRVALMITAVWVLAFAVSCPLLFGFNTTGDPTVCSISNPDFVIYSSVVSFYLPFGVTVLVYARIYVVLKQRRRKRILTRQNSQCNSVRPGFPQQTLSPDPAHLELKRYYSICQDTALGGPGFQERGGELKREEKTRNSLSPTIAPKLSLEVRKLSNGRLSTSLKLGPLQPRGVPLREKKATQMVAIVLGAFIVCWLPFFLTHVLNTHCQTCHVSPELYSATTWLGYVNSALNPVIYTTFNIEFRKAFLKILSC

Tests used:
σ1 receptor = target: T1, σ1 receptor (Rattus norvegicus, UniProt Q9R0C9); assay: Secondary binding assay, Ki determination at σ1 receptor ([3H]pentazocine)
T1 construct: crude membrane fractions prepared from rat brain homogenate for σ1 receptors; from tissue; host or cells: rat brain homogenate, crude membrane fraction

non-sigma receptors = assay: Binding screen against panel of non-sigma receptors (overall statement)
Method: (§1) Initial primary binding screening assays were performed using a 50 μM (initial)−10 μM (final) assay concentration of reference and test compounds.

Alpha2A [1] = target: T2, Alpha2A (Homo sapiens, UniProt P08913); assay: Secondary binding assay, Ki determination: Alpha2A
T2 construct: expressed in transfected cells

Alpha2A [2] = target: T2, Alpha2A; assay: Primary binding assay at non-sigma receptors: Alpha2A; conditions: read-out: % Inhibition Alpha2A
Method: as §1

D3 [3] = target: T3, D3 (Homo sapiens, UniProt P35462); conditions: read-out: Ki (nM) D3; secondary binding assay
D3 [4] = target: T3, D3; assay: Primary binding assay at non-sigma receptors: D3; set-up: expressed in transfected cells; conditions: read-out: % Inhibition D3
Method: as §1

| Structure (SMILES) | σ-2/σ-1 (selectivity for σ1 over σ2) (σ1 receptor; ratio of Ki values) | affinity at non-sigma receptors selected for secondary binding assay (in words) (non-sigma receptors) | selectivity for sigma receptors (σ1 and σ2) over non-sigma receptors (in words) (non-sigma receptors) | Ki (Alpha2A [1]) [nM] | inhibition at 10 µM (Alpha2A [2]) [%] | Ki (D3 [3]) [nM] | inhibition at 10 µM (D3 [4]) [%] | Ki (σ1 receptor; [3H]pentazocine, rat brain homogenate, read-out: σ-1 (Ki)) [nM] |
| --- | --- | --- | --- | --- | --- | --- | --- | --- |
| COc1cc2oc(C(=O)N(CCCN3CCCCC3)c3ccccc3)c(C)c2cc1OC [KSCM-1, 5,6-Dimethoxy-3-methyl-N-phenyl-N-(3-(piperidin-1-yl)propyl)benzofuran-2-carboxamide] | 19 | no significant affinity | have the desired selectivity for sigma receptors | 945 | 55.2 | – | – | – |
| Cc1c(C(=O)N(CCCN2CCCCC2)c2ccccc2)oc2ccccc12 [KSCM-5, 3-Methyl-N-phenyl-N-(3-(piperidin-1-yl)propyl)benzofuran-2-carboxamide] | – | – | have the desired selectivity for sigma receptors | – | – | 6740 | 60.6 | 7.8 |
